Source: BindingDB's records for 28126287 (University of Sargodha, 2017)

Protein sequences, listed by entry. Tags and fused reporters are not part of them. Residues count along the entry.
UniProt Q9N1N9, 29-602 limits assumed: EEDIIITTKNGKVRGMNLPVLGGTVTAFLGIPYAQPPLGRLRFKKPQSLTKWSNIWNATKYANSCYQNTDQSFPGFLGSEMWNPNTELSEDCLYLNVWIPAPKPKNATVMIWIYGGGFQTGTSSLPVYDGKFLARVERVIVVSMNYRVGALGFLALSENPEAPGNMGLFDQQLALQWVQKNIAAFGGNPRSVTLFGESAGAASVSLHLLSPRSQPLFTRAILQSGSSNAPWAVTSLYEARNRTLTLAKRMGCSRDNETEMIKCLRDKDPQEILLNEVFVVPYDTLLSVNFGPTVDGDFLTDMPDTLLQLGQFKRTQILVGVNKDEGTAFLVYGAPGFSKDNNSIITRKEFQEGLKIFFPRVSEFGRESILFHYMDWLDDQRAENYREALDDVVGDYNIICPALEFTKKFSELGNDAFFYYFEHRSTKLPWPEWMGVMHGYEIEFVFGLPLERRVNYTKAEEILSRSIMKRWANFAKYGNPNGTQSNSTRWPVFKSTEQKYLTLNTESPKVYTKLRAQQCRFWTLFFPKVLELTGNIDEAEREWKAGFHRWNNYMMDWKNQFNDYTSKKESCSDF

Target: Carboxylic ester hydrolase (Equus caballus, UniProt Q9N1N9)
Conditions: pH 8

CC1(c2cccc([N+](=O)[O-])c2)NC(=O)c2cc([N+](=O)[O-])cc([N+](=O)[O-])c2N1 (stereo unspecified)
IC50: 9.9 µM
